# Patent US9006450B2 (Boehringer Ingelheim International GmbH, priority 2010, dated 2015)
# Sequences of proteins named here, by UniProt entry; tags and fusion partners are left off. Residues count along the entry.
# UniProt O00763, 129-2458 limits assumed: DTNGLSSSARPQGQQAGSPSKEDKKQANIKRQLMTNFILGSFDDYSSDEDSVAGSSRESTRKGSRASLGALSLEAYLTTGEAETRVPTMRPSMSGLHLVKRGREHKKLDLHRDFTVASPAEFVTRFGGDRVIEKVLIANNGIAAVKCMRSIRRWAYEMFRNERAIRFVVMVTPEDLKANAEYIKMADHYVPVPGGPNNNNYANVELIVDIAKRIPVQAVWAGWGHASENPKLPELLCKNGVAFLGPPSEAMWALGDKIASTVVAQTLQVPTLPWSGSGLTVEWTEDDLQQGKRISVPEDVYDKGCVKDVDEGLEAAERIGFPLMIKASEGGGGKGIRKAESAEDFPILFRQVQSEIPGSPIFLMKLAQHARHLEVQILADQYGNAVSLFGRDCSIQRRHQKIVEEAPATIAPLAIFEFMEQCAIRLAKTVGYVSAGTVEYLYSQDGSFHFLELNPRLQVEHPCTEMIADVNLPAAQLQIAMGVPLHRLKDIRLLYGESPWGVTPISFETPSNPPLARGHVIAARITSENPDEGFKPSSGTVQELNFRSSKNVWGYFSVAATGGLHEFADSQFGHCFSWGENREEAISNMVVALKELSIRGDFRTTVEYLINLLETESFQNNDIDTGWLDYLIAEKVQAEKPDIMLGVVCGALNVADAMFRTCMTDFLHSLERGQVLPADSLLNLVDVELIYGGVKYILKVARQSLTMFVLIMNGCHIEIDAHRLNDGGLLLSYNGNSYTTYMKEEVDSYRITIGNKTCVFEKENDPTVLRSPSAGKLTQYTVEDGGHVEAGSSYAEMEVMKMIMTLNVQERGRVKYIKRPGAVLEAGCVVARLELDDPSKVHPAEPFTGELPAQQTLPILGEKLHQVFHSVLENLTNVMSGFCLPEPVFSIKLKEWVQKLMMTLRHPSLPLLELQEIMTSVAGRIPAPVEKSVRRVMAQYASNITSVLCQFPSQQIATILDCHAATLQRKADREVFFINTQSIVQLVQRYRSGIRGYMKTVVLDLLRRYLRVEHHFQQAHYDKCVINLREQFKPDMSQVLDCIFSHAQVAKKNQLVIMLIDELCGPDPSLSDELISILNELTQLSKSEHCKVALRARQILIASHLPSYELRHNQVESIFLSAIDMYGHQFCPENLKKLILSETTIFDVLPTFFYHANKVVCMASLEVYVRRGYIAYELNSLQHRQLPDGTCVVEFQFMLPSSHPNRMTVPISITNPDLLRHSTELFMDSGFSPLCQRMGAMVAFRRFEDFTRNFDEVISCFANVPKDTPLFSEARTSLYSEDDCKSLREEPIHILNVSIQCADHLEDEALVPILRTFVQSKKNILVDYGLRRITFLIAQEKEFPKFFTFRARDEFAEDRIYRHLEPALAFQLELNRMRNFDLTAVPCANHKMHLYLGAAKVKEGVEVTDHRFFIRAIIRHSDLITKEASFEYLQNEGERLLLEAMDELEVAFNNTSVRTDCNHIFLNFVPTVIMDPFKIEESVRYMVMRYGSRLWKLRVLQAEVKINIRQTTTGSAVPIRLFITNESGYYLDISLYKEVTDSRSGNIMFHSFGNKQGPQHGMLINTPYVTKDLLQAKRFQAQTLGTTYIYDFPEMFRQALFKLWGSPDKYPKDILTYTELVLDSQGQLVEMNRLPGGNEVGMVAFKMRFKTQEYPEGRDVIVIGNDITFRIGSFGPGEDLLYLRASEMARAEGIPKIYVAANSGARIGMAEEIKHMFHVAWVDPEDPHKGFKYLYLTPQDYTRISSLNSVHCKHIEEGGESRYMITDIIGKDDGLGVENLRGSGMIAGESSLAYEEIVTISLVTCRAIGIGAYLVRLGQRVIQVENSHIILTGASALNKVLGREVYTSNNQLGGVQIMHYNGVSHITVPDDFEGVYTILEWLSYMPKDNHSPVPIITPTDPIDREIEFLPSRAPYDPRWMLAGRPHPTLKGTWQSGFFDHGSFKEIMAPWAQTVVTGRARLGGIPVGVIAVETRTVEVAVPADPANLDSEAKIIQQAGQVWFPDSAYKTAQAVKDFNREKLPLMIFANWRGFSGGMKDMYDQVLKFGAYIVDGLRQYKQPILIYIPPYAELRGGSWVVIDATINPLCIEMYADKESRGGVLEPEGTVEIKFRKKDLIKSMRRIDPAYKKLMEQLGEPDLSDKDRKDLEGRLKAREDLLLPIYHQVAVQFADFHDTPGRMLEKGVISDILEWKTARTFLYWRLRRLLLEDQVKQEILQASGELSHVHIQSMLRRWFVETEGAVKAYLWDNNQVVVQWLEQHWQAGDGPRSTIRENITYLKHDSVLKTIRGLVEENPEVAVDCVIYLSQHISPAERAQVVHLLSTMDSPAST
# Molecular target: human ACC2 (Homo sapiens, UniProt O00763)
# Assay: ACC2 assay, spectrophotometric 384 well assay (NADH-linked, coupled lactate dehydrogenase/pyruvate kinase)
# Conditions: hACC2 construct lacking 128 N-terminal amino acids, 25° C., 340 nm
# Protocol: Spectrophotometric 384 Well Assay
# Malonyl CoA formation by acetyl CoA carboxylases is stoichometrically linked to the consumption of ATP. ACC2 activity is measured in a NADH-linked kinetic method measuring ADP generated during the ACC reaction using a coupled lactate dehydrogenase/pyruvate kinase reaction.
# For biological testing, a human ACC2 construct which lacks the 128 amino acids at the N-terminus for increased solubility (nt 385-6966 in Genbank entry AJ575592) is cloned. The protein is then expressed in insect cells using a baculoviral expression system. Protein purification is performed by anion exchange.
# All compounds are dissolved in dimethyl sulfoxide (DMSO) to a concentration of 10 mM.
# Assay reactions are then carried out in 384-well plates, with hACC2 in an appropriate dilution and at final assay concentrations (f.c.) of 100 mM Tris (pH 7.5), 10 mM trisodium citrate, 25 mM KHCO3, 10 mM MgCl2, 0.5 mg/mL BSA, 3.75 mM reduced L-glutathione, 15 U/mL lactate dehydrogenase, 0.5 mM phosphoenolpyruvate, 15 U/mL pyruvate kinase, compounds at different concentrations at final DMSO concentrations of 1%.
# The enzymatic reaction is then started by addition of a mixture of NADH, acetyl Coenzyme A (both 200 μM f.c.) and ATP (500 uM f.c.). The decrease of the optical density (slope S) is then determined at 25° C. at a wavelength of 340 nm over 15 minutes in a spectrophotometric reader.
# Each assay microtiter plate contains wells with vehicle instead of compound as controls for the non-inhibited enzyme (100% CTL; ‘HIGH’) and wells without acetyl-CoA as controls for non-specific NADH degradation (0% CTL; ‘LOW’).
# The slope S is used for calculation of % CTL=(S(compound)−S('LOW'))/(S('HIGH')−S('LOW'))*100. Compounds will give values between 100% CTL (no inhibition) and 0% CTL (complete inhibition).
# For IC50 value determination, the sample slope in the presence of the test compound after subtraction of the low controls (S(compound)−S('LOW')) are used.
# An IC50 value is derived from the compound slopes at different dosages after subtraction of the low controls (S(compound)−S('LOW')) by non-linear regression curve fitting (equation y=(A+((B−A)/(1+((C/x)^D))))).
row,SMILES,IC50 [µM]
1,CC(=O)N[C@@H](C)c1ccc(C2CCN(c3ccc(OC4CCC4)cc3)CC2)cc1,0.03
2,CCOc1ccc(N2CCC(c3ccc([C@H](C)NC(C)=O)cc3)CC2)c(C#N)n1,0.21
3,CC(=O)N[C@@H](C)c1ccc(C2CCN(c3ccc(OCC4CC4)cc3F)CC2)cc1,0.04
4,CCOc1cc(N2CCC(c3ccc([C@H](C)NC(=O)N(C)C)cc3)CC2)ccn1,0.17
5,CC(=O)N[C@@H](C)c1ccc(C2CCN(c3ccc(OC(C)C)cc3)CC2)cc1,0.24
6,CCOc1ccc(N2CCC(c3ccc([C@H](C)NC(C)=O)cc3)CC2)c(OC)c1,0.35
7,CC(=O)N[C@H](C)c1ccc(C2CCN(c3ccc(OCC4CC4)cc3)CC2)cc1,13.2
8,C[C@H](NC(=O)N(C)C)c1ccc(C2CCN(c3ccc4c(c3)OCCO4)CC2)cc1,0.35
9,CCOc1ccc(N2CCC(c3ccc([C@H](C)NC(C)=O)cc3)CC2)c(F)c1,0.09
10,CC(=O)N[C@@H](C)c1ccc(C2CCN(c3ccc(OCC4CC4(F)F)cc3F)CC2)cc1 (stereo partly shown),0.03
11,CC(=O)N[C@@H](C)c1ccc(C2CCN(c3cc(Oc4ccccc4)ncn3)CC2)cc1,0.29
12,CC(=O)N[C@@H](C)c1ccc(C2CCN(c3ccc(OCC4(C#N)CC4)cc3)CC2)cc1,2.7
13,CCOc1ccc(N2CCC(c3ccc([C@H](C)NC(=O)N(C)C)cc3)CC2)cc1,0.14
14,CCOc1ccc(N2CCC(c3ccc([C@@H](C)NC(C)=O)cc3)CC2)c(F)c1,23.3
15,CCOc1ccc(N2CCC(c3ccc([C@H](C)NC(=O)C4CCOC4)cc3)CC2)cc1 (stereo partly shown),2.6
16,CCC(=O)N[C@@H](C)c1ccc(C2CCN(c3ccc(OCC4CC4)cc3)CC2)cc1,0.13
17,CC(=O)N[C@@H](C)c1ccc(C2CCN(c3ncc(-c4ccoc4)cn3)CC2)cc1,0.02
18,COc1cc(OC2CC2)ccc1N1CCC(c2ccc([C@H](C)NC(C)=O)cc2)CC1,0.16
19,CC(=O)N[C@@H](C)c1ccc(C2CCN(c3ccc(OC4CC4)cc3)CC2)cc1,0.05
